The target in test [1] is FC region from IgG. The test is described as follows: BSI, steady-state (end-point) analysis with Prism, free solution.
For test [2], the target named is FC region from IgG. In words: BSI, kinetic analysis (observed rate versus IgG concentration), free solution.
For test [3], the target named is Calcineurin. In words: BSI, steady-state or end-point analysis, Ca2+ present.
The target of test [4] is Calcineurin. In words: BSI control, 10 nM CaM and 100 nM Calcineurin, both in the absence of Ca2+.
Test [5] concerns the target Calcineurin. The test is described as follows: BSI, kinetic analysis (observed rates versus Calcineurin concentration), Ca2+ present.

Consider 2 substances from patent US20180120302A1.

Where only a bound is given, the exact number is not on record here.

For Protein A (from UniProt P38507 37-477), the Kd (as a rule, the free concentration of one partner at which half of the binding sites on the other are occupied at equilibrium, for simple one-to-one binding) with FC region from IgG [1] stood at 6.27 nM; in the test with FC region from IgG [2] it was 7.91 nM.
In the case of Calmodulin (from UniProt P0DP23 2-149), the results for the dissociation constant Kd with Calcineurin [3] and with Calcineurin [5] were 11.6 nM and 15.7 nM, respectively. In addition, the percent of the signal observed at the equivalent concentrations in the presence of Ca2+ in the test with Calcineurin [4] was less than 1.5%.
